Reference: US8791131B2, “Imidazo[1,5]naphthyridine compounds, their pharmaceutical use and compositions” (Pfizer Inc., priority 2008, dated 2014)

Chains of the proteins cited; added tags and fusions are not shown.
UniProt P42337, whole entry: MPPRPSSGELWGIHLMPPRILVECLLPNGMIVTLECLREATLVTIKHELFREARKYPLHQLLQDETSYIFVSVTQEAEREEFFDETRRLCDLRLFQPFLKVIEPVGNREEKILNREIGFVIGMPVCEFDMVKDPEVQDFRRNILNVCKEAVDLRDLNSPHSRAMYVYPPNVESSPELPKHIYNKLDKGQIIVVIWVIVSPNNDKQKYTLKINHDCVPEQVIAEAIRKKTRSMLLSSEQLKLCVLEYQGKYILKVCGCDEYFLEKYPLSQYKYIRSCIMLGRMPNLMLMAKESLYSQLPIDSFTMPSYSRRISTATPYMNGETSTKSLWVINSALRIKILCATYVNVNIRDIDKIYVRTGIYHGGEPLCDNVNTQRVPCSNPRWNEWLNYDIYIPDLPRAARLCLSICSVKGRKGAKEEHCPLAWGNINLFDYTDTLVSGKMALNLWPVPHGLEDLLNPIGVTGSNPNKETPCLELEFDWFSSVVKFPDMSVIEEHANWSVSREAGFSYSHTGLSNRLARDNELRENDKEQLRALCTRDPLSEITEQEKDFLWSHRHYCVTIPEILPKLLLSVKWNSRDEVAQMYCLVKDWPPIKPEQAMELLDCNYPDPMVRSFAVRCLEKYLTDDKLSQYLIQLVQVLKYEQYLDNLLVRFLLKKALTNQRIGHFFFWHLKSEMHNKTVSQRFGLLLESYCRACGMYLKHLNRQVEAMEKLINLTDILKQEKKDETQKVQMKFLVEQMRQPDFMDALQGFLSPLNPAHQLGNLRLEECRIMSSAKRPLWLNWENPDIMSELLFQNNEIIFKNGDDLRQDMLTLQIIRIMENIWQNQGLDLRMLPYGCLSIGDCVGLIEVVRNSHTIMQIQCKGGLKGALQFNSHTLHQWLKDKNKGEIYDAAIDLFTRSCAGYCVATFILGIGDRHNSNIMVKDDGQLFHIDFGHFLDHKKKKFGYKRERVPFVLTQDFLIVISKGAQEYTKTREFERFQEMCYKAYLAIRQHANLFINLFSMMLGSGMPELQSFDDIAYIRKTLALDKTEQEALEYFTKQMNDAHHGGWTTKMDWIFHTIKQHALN

The molecules below were run against PI3-Kα (Mus musculus (Mouse), UniProt P42337) (assay: PI3-Kα biochemical assay (in vitro kinase assay, fluorescence polarization)). Conditions: Ki calculated from IC50, [ATP]=30 uM, Km=25 uM.
For `CN1CCC(n2c(=O)n(C)c3cnc4ccc(-c5ccc(N(C)C)nc5)nc4c32)CC1` [Compound 207, 8-[6-(dimethylamino)pyridin-3-yl]-3-methyl-1-(1-methylpiperidin-4-yl)-1,3-dihydro-2H-imidazo[4,5-c][1,5]naphthyridin-2-one], the “PI3Ka Ki” value was 26.7 nM. `CNC(=O)N1CCC(n2c(=O)n(C)c3cnc4ccc(-c5cnn(C)c5)nc4c32)CC1` [Compound 217, N-methyl-4-[3-methyl-8-(1-methyl-1H-pyrazol-4-yl)-2-oxo-2,3-dihydro-1H-imidazo[4,5-c][1,5]naphthyridin-1-yl]piperidine-1-carboxamide] was tested, and the “PI3Ka Ki” value was 26.2 nM. With `COc1ncc(-c2ccc3ncc4c(c3n2)n([C@H]2CC[C@H](O)CC2)c(=O)n4C)cn1` [Compound 169, 1-(trans-4-hydroxycyclohexyl)-8-(2-methoxypyrimidin-5-yl)-3-methyl-1,3-dihydro-2H-imidazo[4,5-c][1,5]naphthyridin-2-one] the “PI3Ka Ki” value was 0.974 nM. `COc1ccc(-c2ccc3ncc4c(c3n2)n(C2CCN(C(=O)CO)CC2)c(=O)n4C)cc1` [Compound 273, 1-(1-glycoloylpiperidin-4-yl)-8-(4-methoxyphenyl)-3-methyl-1,3-dihydro-2H-imidazo[4,5-c][1,5]naphthyridin-2-one] was tested, and the “PI3Ka Ki” value was 1.94 nM.

What follows are molecules tested against mTOR (Homo sapiens (Human), UniProt P42345) (assay: not given). Conditions: not given.
Molecule `CNC(=O)Nc1ccc(-c2ccc3ncc4c(c3n2)n(C2CCN(C(=O)[C@H](C)O)CC2)c(=O)n4C)cc1` [Compound 244, 1-[4-(1-{1-[(2S)-2-hydroxypropanoyl]piperidin-4-yl}-3-methyl-2-oxo-2,3-dihydro-1H-imidazo[4,5-c][1,5]naphthyridin-8-yl)phenyl]-3-methylurea] has a Ki of 1.78 nM. `Cn1c(=O)n([C@H]2CC[C@H](O)CC2)c2c3nc(-c4cnc5[nH]ncc5c4)ccc3ncc21` [Compound 268, 1-(trans-4-hydroxycyclohexyl)-3-methyl-8-(1H-pyrazolo[3,4-b]pyridin-5-yl)-1,3-dihydro-2H-imidazo[4,5-c][1,5]naphthyridin-2-one] showed a Ki of 0.117 nM. For `CC(=O)N1CCC(n2c(=O)n(C)c3cnc4ccc(-c5cccc(-n6cccn6)c5)nc4c32)CC1` [Compound 247, 1-(1-acetylpiperidin-4-yl)-3-methyl-8-[3-(1H-pyrazol-1-yl)phenyl]-1,3-dihydro-2H-imidazo[4,5-c][1,5]naphthyridin-2-one], the Ki was 4.82 nM. For `C[C@H](CO)n1c(=O)n(C)c2cnc3ccc(-c4cnc5ccccc5c4)nc3c21` [Compound 234, 1-[(1R)-2-hydroxy-1-methylethyl]-3-methyl-8-quinolin-3-yl-1,3-dihydro-2H-imidazo[4,5-c][1,5]naphthyridin-2-one], the Ki was 9.63 nM. `COc1ccc(-c2ccc3ncc4c(c3n2)n(C2CCN(C(=O)[C@H](C)O)CC2)c(=O)n4C)cc1` [Compound 272, 1-{1-[(2S)-2-hydroxypropanoyl]piperidin-4-yl}-8-(4-methoxyphenyl)-3-methyl-1,3-dihydro-2H-imidazo[4,5-c][1,5]naphthyridin-2-one] gave a Ki of 1.94 nM. Work on `COc1ncc(-c2ccc3ncc4c(c3n2)n(C2CCN(C(=O)CN(C)C)CC2)c(=O)n4C)cn1` [Compound 183, 1-[1-(N,N-dimethylglycyl)piperidin-4-yl]-8-(2-methoxypyrimidin-5-yl)-3-methyl-1,3-dihydro-2H-imidazo[4,5-c][1,5]naphthyridin-2-one] yielded a Ki of 8.96 nM. `CN(C)c1ccc(-c2ccc3ncc4c(c3n2)n(C2CCN(C(=O)C(C)(C)O)CC2)c(=O)n4C)cn1` [Compound 209, 8-[6-(dimethylamino)pyridin-3-yl]-1-[1-(2-hydroxy-2-methylpropanoyl)piperidin-4-yl]-3-methyl-1,3-dihydro-2H-imidazo[4,5-c][1,5]naphthyridin-2-one] gave a Ki of 6.1 nM.
